According to PubChem BioAssay (NCI):
Some results for these compounds are left out of this collection, so the calls shown say nothing about other tests.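 Where inhibition never reached the appropriate level, the endpoint shown equals the highest concentration tested. Otherwise, values were interpolated linearly from a five-concentration, 48-hour dose response in 96-well plates. TGI is the concentration that stops growth completely.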

Experiments:
Assay in all cases: growth of human tumour cells (NCI), 48 h
[1] = tested on: KM12 colon
[2] = tested on: A498 renal
[3] = tested on: SF-268 CNS
[4] = tested on: MDA-N
[5] = tested on: RPMI-8226 leukemia
[6] = tested on: UACC-257 melanoma
[7] = tested on: A549 NSCLC
[8] = tested on: HOP-62 NSCLC
[9] = tested on: DU-145 prostate
[10] = tested on: UACC-62 melanoma
[11] = tested on: IGROV1 ovarian
[12] = tested on: NCI/ADR-RES ovarian
[13] = tested on: K-562 leukemia
[14] = tested on: HT29 colon
[15] = tested on: SK-MEL-2 melanoma
[16] = tested on: MALME-3M melanoma
[17] = tested on: NCI-H226 lung
[18] = tested on: RXF 393 renal
[19] = tested on: PC-3 prostate
[20] = tested on: SF-295 CNS
[21] = tested on: NCI-H460 lung
[22] = tested on: SK-MEL-28 melanoma
[23] = tested on: SNB-19 CNS
[24] = tested on: U251 CNS
[25] = tested on: OVCAR-4 ovarian
[26] = tested on: MCF7 breast
[27] = tested on: SK-MEL-5 melanoma
[28] = tested on: HCT-15 colon
[29] = tested on: OVCAR-5 ovarian
[30] = tested on: COLO 205 colon
[31] = tested on: 786-0 renal
[32] = tested on: T-47D breast
[33] = tested on: TK-10 renal
[34] = tested on: SR leukemia
[35] = tested on: CAKI-1 renal
[36] = tested on: HL-60(TB) leukemia
[37] = tested on: HCC-2998 colon
[38] = tested on: CCRF-CEM leukemia
[39] = tested on: HCT-116 colon
[40] = tested on: SF-539 CNS
[41] = tested on: OVCAR-8 ovarian
[42] = tested on: SK-OV-3 ovarian
[43] = tested on: LOX IMVI melanoma
[44] = tested on: MDA-MB-435
[45] = tested on: M14 melanoma
[46] = tested on: SN12C renal
[47] = tested on: OVCAR-3 ovarian
[48] = tested on: MOLT-4 leukemia
[49] = tested on: NCI-H522 lung
[50] = tested on: SW-620 colon
[51] = tested on: NCI-H23 lung
[52] = tested on: UO-31 renal
[53] = tested on: NCI-H322M lung
[54] = tested on: MDA-MB-231 breast
[55] = tested on: SNB-75 CNS
[56] = tested on: ACHN renal
[57] = tested on: EKVX NSCLC

O=C(CCCN1CCC(OC(=O)C(O)(c2ccccc2)C2CCCC2)CC1)c1ccccc1 (configuration not stated)
TGI [1]: 29.2 µM
TGI [2]: 32.8 µM
TGI [3]: 36 µM
TGI [4]: 35.4 µM
TGI [5]: 49 µM
TGI [6]: 30.4 µM
TGI [7]: 35.4 µM
TGI [8]: 33.1 µM
TGI [9]: 31.6 µM
TGI [10]: 32.4 µM
TGI [11]: 32.6 µM
TGI [12]: 29.7 µM
TGI [13]: 45.4 µM
TGI [14]: 13.3 µM
TGI [15]: 30.9 µM
TGI [16]: 28.7 µM
TGI [17]: 33.9 µM
TGI [18]: 28.4 µM
TGI [19]: 28.1 µM
TGI [20]: 31.8 µM
TGI [21]: 36.3 µM
TGI [22]: 34.7 µM
TGI [23]: 32 µM
TGI [24]: 32.8 µM
TGI [25]: 28 µM
TGI [26]: 34.5 µM
TGI [27]: 29.8 µM
TGI [28]: 30.7 µM
TGI [29]: 28.4 µM
TGI [30]: 25.4 µM
TGI [31]: 30.8 µM
TGI [32]: 40.3 µM
TGI [33]: 29.6 µM
TGI [34]: 37.6 µM
TGI [35]: 38.5 µM
TGI [36]: 41.1 µM
TGI [37]: 31.2 µM
TGI [38]: 42.3 µM
TGI [39]: 27.9 µM
TGI [40]: 32.1 µM
TGI [41]: 30.8 µM
TGI [42]: 38.5 µM
TGI [43]: 28 µM
TGI [44]: 32.4 µM
TGI [45]: 26.8 µM
TGI [46]: 30.3 µM
TGI [47]: 27 µM
TGI [48]: 43.7 µM
TGI [49]: 42.9 µM
TGI [50]: 36.3 µM
TGI [51]: 32.8 µM
TGI [52]: 21.3 µM
TGI [53]: 30.2 µM
TGI [54]: 32.3 µM
TGI [55]: 29.4 µM
TGI [56]: 29.3 µM
TGI [57]: 32.5 µM
